One assay concerns the target human FPR2 (Homo sapiens (Human), UniProt P25090). Kind of assay: FPR2 cyclic adenosine monophosphate (cAMP) assay. The following applies: read-out: hFPR2 cAMP2 EC50; CHO cells overexpressing human FPR2; forskolin 5 μM, IBMX 200 μM; inhibition of cAMP production, HTRF. For orientation: cAMP levels reflect the balance of adenylyl cyclase and phosphodiesterase activity.
In the next assay the target is human FPR1 (Homo sapiens (Human), UniProt P21462). Put plainly: FPR1 cyclic adenosine monophosphate (cAMP) assay. The following applies: read-out: hFPR1 cAMP EC50; CHO cells overexpressing human FPR1; forskolin 10 μM, IBMX 200 μM; inhibition of cAMP production, HTRF.

The chains behind the UniProt entries cited, without tags or fusion partners.
UniProt P25090, whole entry: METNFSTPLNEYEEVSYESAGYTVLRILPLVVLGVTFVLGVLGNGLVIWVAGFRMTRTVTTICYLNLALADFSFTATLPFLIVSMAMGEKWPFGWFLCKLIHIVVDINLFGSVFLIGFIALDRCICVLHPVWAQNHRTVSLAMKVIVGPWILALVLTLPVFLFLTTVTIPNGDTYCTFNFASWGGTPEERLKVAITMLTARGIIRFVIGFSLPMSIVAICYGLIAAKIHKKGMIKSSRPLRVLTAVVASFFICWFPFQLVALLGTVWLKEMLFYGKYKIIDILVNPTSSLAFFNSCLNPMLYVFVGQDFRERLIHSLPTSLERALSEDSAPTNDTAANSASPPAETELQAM
UniProt P21462, whole entry: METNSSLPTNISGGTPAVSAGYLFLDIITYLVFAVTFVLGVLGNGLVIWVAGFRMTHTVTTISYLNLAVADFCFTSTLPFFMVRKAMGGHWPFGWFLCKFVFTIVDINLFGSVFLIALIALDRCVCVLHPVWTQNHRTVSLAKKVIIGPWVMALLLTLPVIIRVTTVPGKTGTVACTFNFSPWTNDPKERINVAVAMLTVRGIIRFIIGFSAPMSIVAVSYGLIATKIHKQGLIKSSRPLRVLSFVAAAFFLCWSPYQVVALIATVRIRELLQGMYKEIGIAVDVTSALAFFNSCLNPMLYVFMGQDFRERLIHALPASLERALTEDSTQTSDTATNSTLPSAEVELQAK

In the case of `COCC(CO)n1cccc(N2C[C@@H](c3c(F)cc(OC)cc3F)[C@H](NC(=O)N[C@H]3CC[C@H](C(F)F)CC3)C2=O)c1=O` (single isomer, unassigned) [107], the concentration for a half-maximal effect (EC50) (as a rule, the concentration giving half of the maximal effect) on human FPR2 came to 0.028 µM; at human FPR1, 2.8 µM.
On to `COc1cc(F)c([C@@H]2CN(c3cccn(CCO)c3=O)C(=O)[C@H]2NC(=O)NC2CCc3cc(OC)ccc3C2(C)C)c(F)c1` (some centres unmarked), for which the values for the EC50 at human FPR2 and on human FPR1 were 0.0048 µM and 0.021 µM, respectively.
For `COc1cc(F)c([C@@H]2CN(c3ncccc3C(F)(F)F)C(=O)[C@H]2NC(=O)NC2CCc3ccccc3C2)c(F)c1` (some centres unmarked) [Example 24] the same measures were 0.0007 µM and 0.0005 µM.
Consider `COc1cc(F)c([C@@H]2CN(c3cccn(CCO)c3=O)C(=O)[C@H]2NC(=O)NC2CCc3cc(OC)ccc3C2)c(F)c1` (some centres unmarked) [Example 21], for which the concentration for a half-maximal effect (EC50) at human FPR2 was 0.0026 µM; at human FPR1, 0.01 µM.
With `COCCn1cccc(N2C(=O)[C@@H](NC(=O)NC3CCc4cc(Cl)ccc4C3)[C@H](c3c(F)cc(OC)cc3F)[C@@H]2C)c1=O` (some centres unmarked) [Example 27], the EC50 on human FPR1 came out at 0.054 µM.
Consider `COCC(CO)n1cccc(N2C[C@@H](c3c(F)cc(OC)cc3F)[C@H](NC(=O)N[C@H]3CC[C@H](C(F)F)CC3)C2=O)c1=O` (single isomer, unassigned) [106], for which the EC50 was found to be 0.023 µM at human FPR2 and 1.7 µM on human FPR1.

These data come from patent US20230303513A1, “OXOPYRROLIDINE UREA FPR2 AGONISTS” (BRISTOL-MYERS SQUIBB COMPANY, priority 2020, published 2023).
